Experimental data from US9050375B2, “Bi-specific digoxigenin binding antibodies” (priority 2009, dated 2015).

Test system: AHA1 mRNA in MCF-7 breast cancer cells
Assay: bDNA quantification after DIG-labeled siRNA-lipid nanoparticles with <Target-DIG> antibodies
Assay type: cell-based
Settings: no siRNA; 3.24 nM antibody; MCF-7, 12 h
Description: DIG-labeled siRNA-lipid nanoparticles containing 1 pmol of AHA1-, DIG-coupled AHA1-, or luciferase (LUC)-siRNAs were incubated with 3.24 pmol of bispecific antibodies directed against either the tumor-associated LewisY oligosaccharide and DIG <LeY-DIG> or against the sialic acid-binding transmembrane protein, CD22, and DIG <CD22-DIG> or with Dulbecco's Phosphate Buffered Saline (D-PBS) (Invitrogen, Carlsbad, Calif.) in a final volume of 200 μl Opti-MEM® (Invitrogen GmbH, Darmstadt, Germany) at RT for 30 min.
MCF-7 cells were seeded on a 96-well plate with a density of 15,000 cells/well in 80 μl medium (RPMI 1640 Medium, 10% fetal calf serum, 100 U/ml penicillin/streptomycin; Biochrom AG, Berlin, Germany) and incubated overnight in a cell incubator (37° C., 95% H2O, 5% CO2). Following pre-incubation of DIG-labeled siRNA-lipid nanoparticles with <Target-DIG> bispecific antibodies (see above), 20 μl of the mixtures were added to MCF-7 cells, leading to a final volume of 100 μl containing 1 nM siRNA and no antibodies (no AB) or 1 nM siRNA and 3.24 nM of either <LeY-DIG> (LeY) or <CD22-DIG> (CD22) antibodies. Cells were incubated for 12 hours in a cell incubator. […] After incubation, cells were lysed and AHA1- and GAPDH-mRNA concentrations were quantified using a commercially available bDNA-quantification system (Affymetrix Inc., Fremont, Calif.). […]

B1: CD22-DIG: bispecific antibody against CD22 and DIG; non-targeting control on MCF7 (antibody)
heavy: EVQLVESGGGLVKPGGSLKLSCAASGFAFSIYDMSWVRQTPEKRLEWVAYISSGGGTTYYPDTVKGRFTISRDNAKNTLYLQMSSLKSEDTAMYYCARHSGYGSSYGVLFAYWGQGTLVTVSAASTKGPSVFPLAPSSKSTSGGTAALGCLVKDYFPEPVTVSWNSGALTSGVHTFPAVLQSSGLYSLSSVVTVPSSSLGTQTYICNVNHKPSNTKVDKKV[human IgG1 Fc not shown]GGGGSGGGGSQVQLVESGGGLVKPGGSLRLSCAASGFTFSDYAMSWIRQAPGKCLEWVSSINIGATYIYYADSVKGRFTISRDNAKNSLYLQMNSLRAEDTAVYYCARPGSPYEYDKAYYSMAYWGQGTTVTVSSGGGGSGGGGSGGGGSDIQMTQSPSSLSASVGDRVTITCRASQDIKNYLNWYQQKPGKAPKLLIYYSSTLLSGVPSRFSGSGSGTDFTLTISSLQPEDFATYYCQQSITLPPTFGCGTKVEIK
light: DIQMTQTTSSLSASLGDRVTISCRASQDISNYLNWYQQKPDGTVKLLIYYTSILHSGVPSRFSGSGSGTDYSLTISNLEQEDFATYFCQQGNTLPWTFGGGTKLEIKRTVAAPSVFIFPPSDEQLKSGTASVVCLLNNFYPREAKVQWKVDNALQSGNSQESVTEQDSKDSTYSLSSTLTLSKADYEKHKVYACEVTHQGLSSPVTKSFNRGEC
In the case of B1, the “relative AHA1-mRNA concentration, only antibody” value is reported as 96.3%.
